Columns and labels:
[1] = system: HER2-positive tumour (LS174T colorectal tumour model); experiment: Comparative micro-PET imaging of HER2-positive tumour (LS174T); assay type: in vivo, mice; conditions: 24 hours, FIGS. 2 and 3
Experimental: A comparative study was also undertaken to compare the efficacy of a compound of the present invention (specifically, ^89Zr(DFO-squarate-trastuzumab)) as a tumour imaging agent, with two other imaging agents (^89Zr(DFO-maleimide-trastuzumab) and ^9ZrCl). The ^89Zr(DFO-maleimide-trastuzumab) was prepared by dissolving a 50-fold excess of DFO-maleimide in water, and adding it to trastuzumab (Herceptin) in PBS buffer. Unreacted DFO-maleimide was removed by spin filtration and the purified conjugate was radiolabelled with ^89Zr(ox)4 as described above for DFO-squarate.
Mice with HER2 positive tumours were injected with two doses of a solution containing either ^89Zr(DFO-squarate-trastuzumab), ^89Zr(DFO-maleimide-rastuzumab) or ^89ZrCl, in 20 mM PBS (pH 7) with 5% sodium gentisate (200 μL, 6.0 MBq each). PET images were taken at intervals of 22 hours, 46 hours, 94 hours and 8 days post administration in respect of the ^89Zr(DFO-squarate-trastuzumab)-treated mouse, and at 24 hours for the ^89Zr(DFO-maleimide-trastuzumab)- and ^89ZrCl-treated mice (see FIGS. 1, 2 and 3, respectively).

[2] = system: HER2-positive tumour (BT474 breast carcinoma model); experiment: Micro-PET imaging of BT474 tumour-bearing mice, Study 1; assay type: in vivo
BT474 tumour = experiment: Mouse PET imaging (BT474), Study 2; assay type: in vivo, NOD/SCID mice
LS174T tumour = experiment: Mouse PET imaging (LS174T); assay type: in vivo, BALB/c nude mice
Experimental: Three doses (7.5 MBq each) were drawn up from the purified mAb solution and administered to LS174T tumour bearing BALB/c nude mice. PET imaging was performed at 24, 48 and 96 hours. Mice were harvested at 96 hours for biodistribution data.

Substance: ^89Zr(DFO-maleimide-trastuzumab): ^89Zr-labelled conjugate of DFO-maleimide with trastuzumab (Herceptin), comparison imaging agent
- Distribution of the radionuclide in PET images [1]: significant distribution of the radionuclide

Substance: ^89Zr-DFOSq-trastuzumab: ^89Zr-labelled conjugate of DFO-squaramide (DFOSq) with trastuzumab (Herceptin)
- Tumour maximum standardised uptake value (SUVmax) ([2]; Mouse 1, 22 h post administration): 10.76
- Tumour maximum standardised uptake value (SUVmax) ([2]; Mouse 1, 46 h post administration): 16.17
- Tumour maximum standardised uptake value (SUVmax) ([2]; Mouse 1, 94 h post administration): 21.97
- Tumour maximum standardised uptake value (SUVmax) ([2]; Mouse 1, 8 d post administration): 31.73
- Tumour maximum standardised uptake value (SUVmax) ([2]; Mouse 2, 22 h post administration): 11.62
- Tumour maximum standardised uptake value (SUVmax) ([2]; Mouse 2, 46 h post administration): 16.24
- Tumour maximum standardised uptake value (SUVmax) ([2]; Mouse 2, 94 h post administration): 25.79
- Tumour maximum standardised uptake value (SUVmax) ([2]; Mouse 2, 8 d post administration): 37.21
- Tumour maximum standardised uptake value (SUV) (BT474 tumour; Mouse ID #3, 24 h): 8.7
- Tumour maximum standardised uptake value (SUV) (BT474 tumour; Mouse ID #5, 48 h): 14.4
- Tumour maximum standardised uptake value (SUV) (BT474 tumour; Mouse ID #6, 48 h): 12.9
- Tumour maximum standardised uptake value (SUV) (BT474 tumour; Mouse ID #6, 96 h): 9.9
- Tumour maximum standardised uptake value (SUV) (BT474 tumour; Mouse ID #7, 24 h): 9.5
- Tumour maximum standardised uptake value (SUV) (BT474 tumour; Mouse ID #7, 96 h): 9.1
- Tumour standardised uptake value (LS174T tumour; Mouse 5, 24 h): 3.10
- Tumour standardised uptake value (LS174T tumour; Mouse 5, 48 h): 3.70
- Tumour standardised uptake value (LS174T tumour; Mouse 5, 96 h): 4.72
- Tumour standardised uptake value (LS174T tumour; Mouse 6, 24 h): 3.32
- Tumour standardised uptake value (LS174T tumour; Mouse 6, 48 h): 3.73
- Tumour standardised uptake value (LS174T tumour; Mouse 6, 96 h): 5.32
- Tumour standardised uptake value (LS174T tumour; Mouse 7, 24 h): 3.07
- Tumour standardised uptake value (LS174T tumour; Mouse 7, 48 h): 4.04
- Tumour standardised uptake value (LS174T tumour; Mouse 7, 96 h): 5.65
